Assay results reported in patent US20180313827A1.

By UniProt entry, the sequences of proteins in these tests, tags left out. Chains listed by the source or under a name are the forms on record and can include a tag or linker.
UniProt Q9NQI0, other isoform, or with tags, fused parts or gaps limits assumed: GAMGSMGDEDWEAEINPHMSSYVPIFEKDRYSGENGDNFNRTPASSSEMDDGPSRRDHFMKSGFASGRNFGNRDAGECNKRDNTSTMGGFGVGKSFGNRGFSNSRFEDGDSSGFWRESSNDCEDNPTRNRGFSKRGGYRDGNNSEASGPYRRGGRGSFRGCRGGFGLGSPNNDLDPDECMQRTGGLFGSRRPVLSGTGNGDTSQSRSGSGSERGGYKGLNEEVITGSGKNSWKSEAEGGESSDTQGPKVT

Molecular target: Ddx4_N1_1 (disordered N-terminus of Ddx4 protein, forming Ddx4N1 membraneless organelles / proteinaceous phase) (Homo sapiens (Human)) (UniProt Q9NQI0)
Assay: confocal fluorescence microscopy, partitioning inside vs outside Ddx4N1 organelles in vitro; 17.3 µM, 175 mM NaCl

ΔGpart (partition free energy into Ddx4N1 organelles): -3.4 kJmol^-1
Substance: sHSP16.5_GFP (small heat shock protein Hsp16.5 fused to GFP, oligomer)
